## Measured melting point values of organic chemicals

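These are experimental values that the OPERA curators gathered from public databases to train and test their QSAR models. One number stands for a compound and property, with no spread given. Conditions of the individual experiments are not part of the data. A value may pool stereoisomers or salt forms, and the file does not say which form was measured. Some entries may be limits or estimates that an upstream database listed as plain numbers.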

The melting point is given in degrees Celsius.

| compound | mp (°C) |
|---|---|
| N#CCN1CCN(Cc2ccccc2)CC1 | 50 |
| CC(Cl)C(=O)NC(N)=O (stereo not given) | 160 |
| ON=Cc1ccc2c(c1)OCO2 | 115 |
| O=C1NC(=O)C2(CCCC2)C(=O)N1 | 272 |
| Nc1ccc(CN2CCN(Cc3ccccc3)CC2)cc1 | 97 |
| Cc1ccc(S(=O)(=O)NCCCCCC(=O)O)cc1.OCCN(CCO)CCO | 56.9 |
| Oc1cccc2nc3ccccc3nc12 | 158 |
| O=[N+]([O-])C=Cc1c(Cl)cccc1Cl | 64.5 |
| Cc1nc2ccccc2c(=O)n1-c1ccc(C(=O)O)cc1 | 221 |
| C[N+](C)(C)Cc1ccccc1.[I-] | 182 |
| CC(C)(C)NC(=O)CCl | 76 |
| CN(C(=O)C[N+](C)(C)C)C(=O)Oc1cccc2c1OC(C)(C)C2.[Cl-] | 200 |
| Cc1ccccc1-n1c(Cl)nc2ccccc2c1=O | 299 |
| Clc1ccc(Cl)c(-c2c(Cl)c(Cl)cc(Cl)c2Cl)c1 | 100 |
| CC(=O)O[C@@H]1[C@@H](O)C2OC3C=C(C)C(=O)C(O)[C@@]3(CO)[C@]1(C)[C@]21CO1 (stereo not given in full) | 91.5 |
| CN(/N=C/c1ccc(F)cc1)P(=O)(N1CC1)N1CC1 | 106 |
| ClCc1coc(-c2cccs2)n1 | 51 |
| CS(=O)(=O)O.CS(=O)(=O)O.NN=C(N)N | 146 |
| Cc1ccc(OCCN(CCCl)CCOc2ccc(C)cc2)cc1.Cl | 155 |
| O=C(CCl)NCCc1cccs1 | 17 |
| BrCc1ccccc1I | 55.5 |
| CCCCCCCCCCCCCCOC(=O)OOC(=O)OCCCCCCCCCCCCCC | 46 |
| O=C(O)Cc1ccc([N+](=O)[O-])cc1[N+](=O)[O-] | 172 |
| O=S(=O)(CCCl)CCCl | 56 |
| O=C([O-])C(F)(F)OC(F)(F)C(F)(F)OC(F)(F)C(F)(F)F.[NH4+] | 95.8 |
| C/C=C1/C[C@@H](C)[C@@](C)(O)C(=O)OC[C@H]2CCN3CC[C@@H](OC1=O)[C@@H]23 | 129 |
| Clc1ccc(-c2cc(Cl)ccc2Cl)cc1 | 67 |
| COC(=O)C1=CCCN(C)C1.Cl | 158 |
| CC(Cl)c1cccc([N+](=O)[O-])c1 (stereo not given) | 34 |
| Oc1ccc2c(c1)CNCC2 | 195 |
| Clc1cc(Cl)c(-c2c(Cl)cc(Cl)cc2Cl)c(Cl)c1 | 113 |
| CN(C)[P+](Cc1ccccc1)(N(C)C)N(C)C.F[B-](F)(F)F | 147 |
| Clc1ccc(-c2cc(Cl)ccc2Cl)c(Cl)c1 | 64 |

Excerpt, the final 6 entries:

{"smiles": "COC(=O)C1=CCCN(C)C1.Cl", "mp (°C)": "158"}
{"smiles": "CC(Cl)c1cccc([N+](=O)[O-])c1", "stereo": "stereo not given", "mp (°C)": "34"}
{"smiles": "Oc1ccc2c(c1)CNCC2", "mp (°C)": "195"}
{"smiles": "Clc1cc(Cl)c(-c2c(Cl)cc(Cl)cc2Cl)c(Cl)c1", "mp (°C)": "113"}
{"smiles": "CN(C)[P+](Cc1ccccc1)(N(C)C)N(C)C.F[B-](F)(F)F", "mp (°C)": "147"}
{"smiles": "Clc1ccc(-c2cc(Cl)ccc2Cl)c(Cl)c1", "mp (°C)": "64"}

From the experimental data distributed with OPERA 2.9.